Measurements published in patent US6375945B1, “Adjuvant compositions for vaccines” (SmithKline Beecham Biologicals s.a., priority 1997, dated 2002).

Test: Enhancement of the effect of the QS21/MPL adjuvant by other cytokines

Substance: IL-2: cytokine
- enhancement of the effect of the QS21/MPL adjuvant: unable to enhance
